Measurements taken from patent publication US20120244230A1, “POLYVALENT POLYNUCLEOTIDE NANOPARTICLE CONJUGATES AS DELIVERY VEHICLES FOR A CHEMOTHERAPEUTIC AGENT” (priority 2009, published 2012).

Legend:
[1] = test system: HeLa cells
Experimental: (§1) Human cervical cancer HeLa, human osteosarcoma U2OS, human prostate PC3 cell lines were procured from the ATCC. A549 lung carcinoma cells were obtained from Prof. David E. Root, Whitehead Institute for Biomedical Research. HeLa, U2OS, and A549 Cells were grown at 37° C. in 5% CO2 in DMEM medium supplemented with 10% fetal bovine serum and 1% penicillin/streptomycin. PC3 cells were grown at 37° C. in 5% CO2 in RPMI supplemented with 10% fetal bovine serum and 1% penicillin/streptomycin. Cells were passed every 3 to 4 days and restarted from frozen stocks upon reaching pass number 20.
(§2) In order to investigate the efficacy of Pt-DNA-Au NPs, their ability to kill cancer cells of various origin was measured. […] Cells were seeded on a 96 well plate in 100 μL media and incubated for 24 hours. The cells were then treated with Pt-DNA-Au NP, 1, or cisplatin, separately at varying concentrations and incubated for 72 hours at 37° C. Medium was removed, cells were washed with PBS and then incubated with cell culture medium containing 20% 3-(4,5-dimethylthiazol-2-yl)-2,5-diphenyltetrazolium bromide (MTT). […] Cells were further incubated overnight and the absorbance was measured at 620 nm using a BioTek Synergy HT multi-detection microplate plate reader. […]

[2] = test system: U2OS cells
Experimental: as §1, §2

[NH2][Pt]([NH2])([OH])([Cl])([Cl])[O]C(=O)CCC(=O)O [Compound 1, c,c,t-[Pt(NH3)2Cl2(OH)(O2CCH2CH2CO2H)]]
cytotoxicity (in words) [1]: did not show any significant killing
cytotoxicity (in words) [2]: did not show any significant killing
